Target: T1, Ectonucleoside triphosphate diphosphohydrolase 1 (Homo sapiens, UniProt P49961)
T1 sequence (P49961 whole entry): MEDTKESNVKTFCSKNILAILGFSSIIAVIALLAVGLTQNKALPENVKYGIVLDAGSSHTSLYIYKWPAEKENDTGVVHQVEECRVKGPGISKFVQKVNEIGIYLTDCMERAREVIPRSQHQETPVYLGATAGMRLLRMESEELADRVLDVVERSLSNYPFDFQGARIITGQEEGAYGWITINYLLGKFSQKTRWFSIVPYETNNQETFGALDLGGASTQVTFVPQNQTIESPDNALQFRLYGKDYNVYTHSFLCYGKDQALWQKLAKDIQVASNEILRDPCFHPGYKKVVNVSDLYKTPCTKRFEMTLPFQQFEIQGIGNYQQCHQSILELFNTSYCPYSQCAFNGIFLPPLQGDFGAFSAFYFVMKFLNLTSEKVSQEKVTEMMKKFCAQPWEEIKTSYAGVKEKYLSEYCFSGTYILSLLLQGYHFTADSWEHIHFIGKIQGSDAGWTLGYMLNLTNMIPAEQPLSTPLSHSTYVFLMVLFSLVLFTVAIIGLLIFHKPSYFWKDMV

## CCN(CC)c1ncnc2c1ncn2[C@@H]1O[C@H](COP(=O)(O)OP(=O)(O)C(Br)(Br)P(=O)(O)O)[C@@H](O)[C@H]1O
  Ki: 11 µM
